{
  "source": "paper PMC8400941",
  "about": "“Preclinical Toxicity and Safety of MM-129—First-in-Class BTK/PD-L1 Inhibitor as a Potential Candidate against Colon Cancer” (Pharmaceutics, 2021)",
  "origin": "cited, not measured here",
  "key": {"[1]": {"design": "method as in PMID 24079553", "conditions": "cited from earlier work"}, "patients": {"system": "patients", "conditions": "800 mg twice daily; cited from earlier work"}},
  "data": [
    {"molecule": "CC[C@H](CO)Nc1nc(NCc2ccccc2)c2ncn(C(C)C)c2n1", "note": "[seliciclib]", "values": [
      {"measurement": "time within which metabolized", "setting": "[1]", "result": "≤ 24", "unit": "h"},
      {"measurement": "liver function in patients", "setting": "patients", "result": "reversible abnormal liver function"}
    ]}
  ]
}
